{"sequences": {"note": "Chains of the proteins cited; added tags and fusions are not shown.", "UniProt P15428, whole entry": "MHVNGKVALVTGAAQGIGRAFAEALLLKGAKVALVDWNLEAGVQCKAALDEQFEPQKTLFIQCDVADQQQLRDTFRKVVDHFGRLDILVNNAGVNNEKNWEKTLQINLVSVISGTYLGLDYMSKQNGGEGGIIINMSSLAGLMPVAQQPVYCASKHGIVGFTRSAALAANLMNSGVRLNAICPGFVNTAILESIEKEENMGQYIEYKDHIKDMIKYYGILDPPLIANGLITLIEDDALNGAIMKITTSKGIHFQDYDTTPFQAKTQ"}, "source": "patent US20230390274A1", "about": "(EPIRIUM BIO INC., priority 2020, published 2023)", "data": [{"molecular_target": "15-PGDH/HPGD (Homo sapiens (Human), UniProt P15428)", "experiment": "hPGDH inhibitor screening biochemical assay", "details": "read-out: hPGDH: Average IC50; 10 nM 15-PGDH/HPGD, 15 μM PGE2, 0.25 mM NAD", "procedure": "A hydroxyprostaglandin dehydrogenase inhibition screening biochemical assay can be performed to assess the synthesized inhibitors provided herein. Provided herein is an exemplary biochemical assay for hPGDH inhibitor screening.\nThe in vitro biochemical assay can be performed in white, 384 plates in total 20 μl reaction volume consisting of 10 nM of 15-PGDH/HPGD (R&D System #5660-DH), 15 μM Prostaglandin E2 (Sigma, Cat #P5640-10MG) and 0.25 mM β-Nicotinamide adenine dinucleotide sodium salt (Sigma, Cat #N0632-5G) made in reaction buffer (50 mM Tris-HCl, pH 7.5, 0.01% Tween 20) at 10-point dose response curve for test/tool compounds. Briefly, 5 μl (4×) of compounds solution and 5 μl (final concentration, 10 nM) of enzyme solution is added to white 384 well plates and incubated for 10 mins at 37° C. 5 μl (4×) of Prostaglandin E2 and 5 μl (4×) of β-Nicotinamide adenine dinucleotide sodium salt is added to the wells and incubated for 10 mins at rt. Fluorescence is recorded at ex/em=340 nm/485 nm. The percentage (%) inhibition of enzyme activity was determined relative to […] (1% DMSO) and IC50 was calculated using GraphPad prism software (four parameter-variable slope equation).", "units": {"IC50": "µM"}, "values": [{"smiles": "COc1ccc(-n2nc(Cl)c3cc(C(=O)N4CCC(F)CC4)ccc32)cc1", "IC50": "0.1 to 1"}, {"smiles": "O=C(NC1CCS(=O)(=O)CC1)c1ccc(-n2ccc3cc(C(=O)N4CCC(F)(F)CC4)cnc32)cc1", "IC50": "< 0.1"}, {"smiles": "O=C(c1cnc2c(c1)ncn2-c1ccc(OC(F)F)cc1)N1CCC(F)CC1", "IC50": "0.1 to 1"}]}]}
